Reference: patent US8916607B2, “Use of piperphentonamine or salts thereof in manufacture of medicaments for treating brain diseases” (Guangzhou Municipal Zhongwei Biotechnology Limited Company, priority 2009, dated 2014)
Like-named read-outs stand apart in the source and are kept apart here. Marks after values point to notes of the source that are not given here.

Columns and labels:
[1] = tested on: local cerebral ischemia of rats; conditions: 24 h after MCAO
[2] = tested on: local cerebral ischemia of rats; assay: local cerebral ischemia model (MACO): neurobehavioral score and infarction area by TTC staining; conditions: for Behavior disorder / Ischemia area(mm^2): JBTA 1 mg/kg iv, NGF 250 U, Vit B6 0.2 mg/kg, method as example 6; for Behavior disorder (points) / Ischemia arae (mm^2): 30 min after operation, 24 h; for Ischemia arae (mm^2): TTC

| Structure (SMILES) | percentage of necrotic neuron (%) cortical neurons ([1]; 1.0 mg/kg (nimodipine 1 mg/kg)) | percentage of necrotic neuron (%) striatum neurons ([1]; 1.0 mg/kg (nimodipine 1 mg/kg)) | Behavior disorder [2] | Ischemia area(mm^2) [2] | percentage of necrotic neuron (%) cortical neurons ([1]; 0.5 mg/kg) | percentage of necrotic neuron (%) striatum neurons ([1]; 0.5 mg/kg) | percentage of necrotic neuron (%) cortical neurons ([1]; 2.0 mg/kg) | percentage of necrotic neuron (%) striatum neurons ([1]; 2.0 mg/kg) | Behavior disorder (points) ([2]; 0.5 mg/kg) | Ischemia arae (mm^2) ([2]; 0.5 mg/kg) | Behavior disorder (points) ([2]; 2.0 mg/kg) | Ischemia arae (mm^2) ([2]; 2.0 mg/kg) |
| --- | --- | --- | --- | --- | --- | --- | --- | --- | --- | --- | --- | --- |
| COCCOC(=O)C1=C(C)NC(C)=C(C(=O)OC(C)C)C1c1cccc([N+](=O)[O-])c1 (stereo not shown) [nimodipine, reference compound] | 24.65 ± 4.25 % | 17.85 ± 4.25 % | 8.31 ± 1.98 | 25.68 ± 5.99* mm^2 | – | – | – | – | – | – | – | – |
| CN(CCC(=O)/C=C/c1ccc(O)cc1)CCc1ccc2c(c1)OCO2.Cl [piperphentonamine hydrochloride, Piperphentonamine hydrochloride] | 14.45 ± 2.55 % | 12.75 ± 2.55 % | 7.25 ± 2.83 | 20.64 ± 4.85* mm^2 | 25.5 ± 3.4 % | 18.7 ± 3.4 % | 11.05 ± 1.7 % | 9.35 ± 1.7 % | 7.59 ± 2.19 points | 21.51 ± 7.94* mm^2 | 4.83 ± 2.53 points | 13.57 ± 3.68** mm^2 |
